Earlier results, collected in patent US5843887A, “Compositions for delivery of polypeptides, and methods” (Allied Medical Research Associates, priority 1994, dated 1998).

Details: nasal route, cited from earlier work

insulin
fraction of absorption (with surfactant materials): 10-20% | onset of action: ≤ 10 min
